Laboratory results taken from patent US5679636A, “Bone and prostate-derived protein factors affecting prostate cancer growth, differentiation, and metastasis” (Board of Regents, The University of Texas, priority 1994, dated 1997).

Tested on: LNCaP cells
Test: cells
Conditions: Homo sapiens

Work on `C[C@]12CC[C@H]3[C@@H](CCC4=CC(=O)CC[C@@]43C)[C@@H]1CC[C@@H]2O` [testosterone] yielded an activation at 0.0005 µM (216 h, read-out: increase in cell number (peak response)) of 62% and an activation at 0.001 µM (read-out: increase in cell growth) of 182%.
